We go through one compound from article PMC8231349 (Journal of Enzyme Inhibition and Medicinal Chemistry, 2021).

Series [1] relates to human bronchial epithelium cells (BEAS-2B). Put plainly: MTT cell viability assay, BEAS-2B. Format: cell-based. As to conditions: BEAS-2B healthy lung epithelial cells, 72 h, vs. 5-FU at the same doses. As for the experimental part: Experiments were performed on human prostate cancer cells (DU145; ATCC HTB-81), human lung cancer cells (A549; ATCC CCL-185-LUC2) and human bronchial epithelium cells (BEAS-2B; ATCC CRL-9609). Cells were grown in Dulbecco's modified Eagle's medium (DMEM) supplemented with 10% of heat-inactivated foetal bovine serum (FBS), 100 U/ml penicillin and 100 μg/ml streptomycin (Sigma-Aldrich, Steinheim, Germany). Cells were incubated at 37 °C in a humidified atmosphere with 5% CO2. […] Cells were seeded into 96-well plates at a density of 7,0 × 10[3] cells/well in 100 µl of culture medium. After 24 h, cells were treated with the compounds at three different concentrations (1 µM, 10 µM and 50 µM) for 72 h. Following treatments, 0.5 mg/ml of 3-[4,5-dimethylthiazol-2-yl]-2,5-diphenyltetrazolium bromide (MTT) (Sigma Aldrich) was added to each well and incubated for 4 h at 37 °C. Finally, DMSO was used to dissolve formazan salts and absorbance was measured at 570 nm in a microplate reader (Biotek Synergy-HT). Eight replicate wells were used for each group. Four independent experiments were performed.
. Furthermore, to compare the cytotoxic effect against cancer vs. normal cell lines, compound 3 has been tested towards the non-tumorigenic human lung epithelial cell line (BEAS-2B) selected as a healthy cell model (Figure 5). […].
On the technique in general: Tetrazolium assays rely on reduction of a dye to a coloured formazan, in cell work by metabolically active cells.

In series [2] the test system is esterase from the porcine liver. Put plainly: In vitro stability in porcine esterase solution (HPLC). Format: in vitro ADME. As to conditions: after two hours. As for the experimental part: The HPLC analysis of samples at various time intervals from in vitro stability in different buffers and porcine esterase solution was performed on Shimadzu Prominence-i LC-2030C 3 D Plus equipped with RID20A. Detector chromatographic separation were carried out using Chromolith SpeedROD RP […], Merck. Spectra were analysed in 200–800 nm range with 1.2 nm resolution. The column was maintained at 30 °C and eluted under gradient conditions from 100% to 0% of eluent A over 3 min, at a flow rate of 5 ml min^−1. Eluent A: water/trifluoroacetic acid (0.1%, v/v); eluent B: acetonitrile/ trifluoroacetic acid (0.1%, v/v).
0.001 g of lyophilised powder of esterase from the porcine liver (Sigma-Aldrich, St. Louis, Missouri, USA) was reconstituted in 1.0 ml PBS buffer (0.01 M, pH 7.4) to make an aqueous porcine esterase solution (5 U/mL), and then pre-thermostated at 37 °C. To a test tube containing 1.85 ml of PBS buffer, 0.15 ml from the stock solution of the test compound was added. […] Pseudo-first-order rate constant for the hydrolysis was determined from the slope of linear plots of the natural logarithm (ln) of the AUC of the peak at time t (AUCt) against time. Half-life (t1/2) was calculated according to Equation (1): (1) t1/2 = ln 2/k were k is the pseudo-first-order rate constant. […]

SMILES strings stand for the structures.

As for `O=C(CCC(=O)OC(Cn1ccnc1)c1cccc(Br)c1)OCn1cc(F)c(=O)[nH]c1=O` (centres unmarked) [Compound 3, 1‐[1‐(3‐bromophenyl)‐2‐(1H‐imidazol‐1‐yl)ethyl]4‐(5‐fluoro‐2,4‐dioxo‐1,2,3,4‐tetrahydropyrimidin‐1‐yl)methyl butanedioate], in series [1], the “Effect on cell viability” value is given as “lower effect on BEAS-2B cells viability comparing to the 5-FU effects”. The “Percentage of compound remaining” value in series [2] is “approximately 50%”.
